From patent US5075338A (priority 1986, dated 1991)

Assay: acute toxicity (on rats)
Conditions: rat

## CC(Cc1ccccc1)NCCBr (centres unmarked)
At the dose printed as LD50 bound
  percentage printed in parentheses beside the s.c. LD50: 0%
s.c.
  LD50: > 200 mg/kg
